# Assay results: PubChem BioAssay AID652104 (National Center for Advancing Translational Sciences (NCATS), 2013)
# Only a part is listed here, and it is no random draw. Records with an inconclusive call do not appear. Calls of active or inactive are those of the source. The call rests on the fitted dose curve; in most records, active means well fitted activation curve with a large enough effect; inconclusive means small, poorly fitted or top-dose-only effect, or another doubt; inactive means no such curve, though single readings can be large or run the other way.
# Assay: qHTS of TDP-43 Inhibitors; further: % of control where 0% means no effect; nearly all actives have a fitted effect of over 50% in size
# Conditions: TDP-43 expressing yeast growth rescue, BacTiter-Glo, 24 h; at 46.1 µM (top of the series)
# Description: The goal of this project is to identify new chemical probes capable of reversing the toxicity associated with TDP-43 which is associated with frontotemporal lobar degeneration and amyotrophic lateral sclerosis. These compounds will provide a complementary approach to deciphering the tangled mechanisms of toxicity and protection that we have uncovered through genome-wide genetic screens and are beginning to uncover in a large-scale proteomics analysis with mass spectroscopy.
# To this end, a miniaturized assay was developed to be screened against the Molecular Libraries Small Molecule Repository (MLSMR) to discover TDP-43 inhibitors. Please note that in the set-up this yeast-based assay compounds that inhibit as TDP-43, have a read-out as activators.
# NIH Chemical Genomics Center [NCGC]
# NIH Molecular Libraries Probe Centers Network [MLPCN]
# Assay Submitter (PI): Susan Lindquist, Whitehead Institute/MIT
# Dispense 2.5 microL yeast galactose medium per 1536-well plate, pin compound, dispense 2.5 microL TDP-43 expressing yeast in galactose medium at OD600=0.02 (pregrown in raffinose medium to mid-log phase) per well, incubate for 24 hr at 30 deg C, and cell growth will be measured using 5 microL of Bactiter/Glo reagent to entire plate and read using Luminescence Protocol in ViewLux.
row,SMILES,growth rescue (activation)
1,COc1ccc(CC(C)NCC(O)c2ccc(O)c(NC=O)c2)cc1 (stereo unspecified),inactive: 17.4%
